This is an account of results in patent US10781185B2, “Heterocyclic compounds for the inhibition of PASK” (BioEnergenix LLC, priority 2009, dated 2020).

By UniProt entry, the sequences of proteins in these tests, tags left out. Residues count along the entry.
UniProt Q96RG2, 879-1323, stated change not applied: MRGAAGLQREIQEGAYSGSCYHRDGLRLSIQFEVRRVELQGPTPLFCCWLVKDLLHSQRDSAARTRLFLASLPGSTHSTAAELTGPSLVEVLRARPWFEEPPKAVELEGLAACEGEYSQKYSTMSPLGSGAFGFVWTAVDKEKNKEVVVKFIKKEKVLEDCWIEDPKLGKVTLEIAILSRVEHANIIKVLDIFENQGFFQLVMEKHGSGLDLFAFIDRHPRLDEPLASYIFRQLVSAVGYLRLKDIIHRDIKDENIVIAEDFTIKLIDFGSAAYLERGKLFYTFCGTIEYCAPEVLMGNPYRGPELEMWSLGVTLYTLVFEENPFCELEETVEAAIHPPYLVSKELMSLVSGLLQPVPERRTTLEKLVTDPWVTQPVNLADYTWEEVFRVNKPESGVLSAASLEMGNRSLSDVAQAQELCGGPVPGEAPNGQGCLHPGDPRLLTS
UniProt Q96RG2, 999-1251: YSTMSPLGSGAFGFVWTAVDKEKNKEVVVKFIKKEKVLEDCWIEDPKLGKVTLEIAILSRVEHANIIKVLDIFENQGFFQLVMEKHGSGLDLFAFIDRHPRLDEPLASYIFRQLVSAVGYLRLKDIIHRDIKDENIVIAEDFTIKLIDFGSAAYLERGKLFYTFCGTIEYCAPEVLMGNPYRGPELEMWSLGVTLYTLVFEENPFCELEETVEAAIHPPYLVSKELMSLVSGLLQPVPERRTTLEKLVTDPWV

pIC50: −log10 of the molar value.

In experiment [1] the target is PASK (UniProt # Q96RG2; human recombinant N-terminal GST tagged construct, residues 879-1323) (Homo sapiens (Human), UniProt Q96RG2). The experiment in a line: PASK ATP Radiochemical Assay. The experiment is classed as biochemical. The conditions noted are these: 33P-ATP radiochemical, Myelin Basic Protein substrate; read-out: IC50 Kinase Domain. How it is done: PASK ATP Radiochemical Assay
Test compounds in DMSO are then added and the mixture, followed by delivery of ^33P-ATP (specific activity 0.01 μCi/μl final) to initiate the reaction. […] The entire reaction mixture is washed through onto a P81 Phosphocellulose paper and washed three times for 10 minutes in 75 mM phosphoric acid and once in methanol prior to drying and scintillation counting.

The target of experiment [2] is PASK (Homo sapiens (Human), UniProt Q96RG2). Kind of experiment: PAS Kinase FRET Assay. The experiment is classed as biochemical. The note with it: TR-FRET, Ulight-peptide substrate; read-out: IC50 Kinase Domain. From the text:
PAS Kinase FRET Assay The aim of the FRET assay is to determine the inhibition potential of test compounds on targeted kinase. This assay platform provides a homogenous screening method for measuring kinase activity by quantitating the amount of phospho-substrate in solution following a kinase reaction. In the presence of kinase and ATP, the Ulight-peptide is phosphorylated and captured by an anti-phospho-substrate antibody, which brings the Eu chelate donor and Ulight acceptor dyes into close proximity. […] The contents of the plate were and incubated at RT for 1 h. The reaction was stopped by adding 5 μl of stop solution to each test well followed by mixing and incubation at RT for 10 minutes. 5 μl of detection mix (detection antibody diluted in detection buffer) was added; the contents of the plate were mixed and then incubated in the dark for 1 hour at RT. […] The results were graphed to calculate the EC50. Titration of ATP at the EC50 concentration of kinase to determine ATP Km,app. was performed using the following method. […] The contents of the plate were and incubated at RT for 1 h. The reaction was stopped by adding 5 μl of stop solution to each test well followed by mixing and incubation at RT for 10 minutes. 5 μl of detection mix (detection antibody diluted in detection buffer) was added; the contents of the plate were mixed and then incubated in the dark for 1 hour at RT. […]
(In general: Time-resolved FRET reads energy transfer from a long-lived donor to a nearby acceptor.)

A word on the pIC50: it is −log10 of the IC50, conventionally taken in molar units. As to `O=C(O)c1ccc2nc(-c3ccccc3)c(N3CCNCC3)nc2c1` [Example 5, 2-Phenyl-3-(piperazin-1-yl)quinoxaline-6-carboxylic acid], the pIC50 at PASK [1] is below 5.00. As to `C[C@H]1CCCN1c1nc2cc(C(=O)O)ccc2nc1-c1ccc(F)cc1` [Example 74, (S)-2-(4-Fluorophenyl)-3-(2-methylpyrrolidin-1-yl)quinoxaline-6-carboxylic acid], the pIC50 was at least 5.00 at PASK [2] and above 5.00 on PASK [1].
